In one test the target is TRPML1 (Homo sapiens, UniProt Q9GZU1). As to the kind of experiment: Cellular TRPML1 assay (FLIPR, GCaMP6f calcium read-out). It is filed as cell-based. The settings on record: HEKT-REx/GCaMP6f/TRPML1 cells, FLIPR TETRA, kinetic response over 300 seconds. The procedure:
Example A: Cellular TRPML1 Assay
The final clone for the TRPML1 assay is HEKT-REx/GCaMP6f/TRPML1. GCaMP6f is a genetically encoded calcium indicator that is stably expressed in this cell line and used as a fluorescent read-out.
Experiments were performed in 384 MTP format. Cells are seeded at 15000 cells/well in 20 μl/well of Optimem+0.5% FBS without selection antibiotics. Twenty-four hours later, cells are assayed for the response to various compounds using the Ca^2+ sensitive GCaMP6f protein stably expressed in the cells as readout.
The experiment was performed in a 384-well format according to the following procedures: • 24 h after seeding, the cells were pre-incubated at room temperature for about 10 min. • Started the experiment at the FLIPR^TETRA by injecting 10 μL/w of 3× concentrated test compounds and controls in Ca^2+ free Tyrode's buffer. Monitored the kinetic response over a period of 300 seconds. • Final DMSO concentration: 0.5%
Data from FLIPR^TETRA measurements were analyzed with the Genedata Screener© software.

The chains behind the UniProt entries cited, without tags or fusion partners.
UniProt Q9GZU1, whole entry: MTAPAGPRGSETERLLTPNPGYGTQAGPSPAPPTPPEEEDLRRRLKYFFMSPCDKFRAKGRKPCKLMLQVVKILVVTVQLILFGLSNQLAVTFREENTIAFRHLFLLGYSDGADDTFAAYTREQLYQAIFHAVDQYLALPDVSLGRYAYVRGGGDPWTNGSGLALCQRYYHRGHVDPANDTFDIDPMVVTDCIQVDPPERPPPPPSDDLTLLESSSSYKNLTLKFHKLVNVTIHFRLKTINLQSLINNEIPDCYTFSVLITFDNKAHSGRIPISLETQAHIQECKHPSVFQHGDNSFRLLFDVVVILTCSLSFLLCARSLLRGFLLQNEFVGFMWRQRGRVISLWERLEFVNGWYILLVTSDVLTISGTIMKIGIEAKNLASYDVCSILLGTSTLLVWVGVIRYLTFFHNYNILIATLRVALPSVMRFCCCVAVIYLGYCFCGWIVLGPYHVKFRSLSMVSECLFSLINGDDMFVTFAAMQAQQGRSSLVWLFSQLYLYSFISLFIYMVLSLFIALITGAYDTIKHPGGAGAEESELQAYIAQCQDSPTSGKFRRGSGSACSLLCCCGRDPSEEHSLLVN

A further test concerns TFEB. As to the kind of experiment: TFEB translocation assay (TFEB reporter in U2OS cells, imaging). The conditions noted are these: U2OS cell line with TFEB reporter, 2 hours incubation, nucleus to cytoplasm ratio, normalized to Torin-1. The procedure: Example B: TFEB Translocation Assay
Reporter TFEB: the reporter is fused to a sequence of monomeric red fluorescent protein.
The reporter TFEB have been stably expressed in U2OS cell line and used as read-out.
Experiments were performed in 384 MTP well format. Cells were seeded in 384-w at a density of 4000 cells/well in 20 μl/well complete growth medium without antibiotics. Twenty-four hours later, cells were treated with compounds and incubated for further 2 hours. Then the cells were imaged and assayed for the response to various compounds using the reporter for TFEB expressed in the cells as readout.
The experiments were performed in a 384-well format according to the following procedure: • 24 h after seeding, cell culture medium was carefully removed and replaced with 20 μl of Opti-MEM (30′ incubation at 37° C. before compound addition) • Then, cells were incubated with compounds diluted in Opti-MEM+0.015% Tween 80 at the desired concentration, with the reference molecule (agonist) Torin-1 at a top concentration of 1 μM (max signal), and with the other reference molecule (agonist) MLSA-5 at top concentration of 20 μM for 2 hours at 37° C. and 5% CO2. […] The image analysis involved the following steps: flat-field illumination correction, nuclei segmentation, cytoplasm segmentation and calculation of intensity fluorescence in the cytosol and nuclei compartments. […]

`COCc1oc(N2CCCC2)nc1C(=O)Nc1ccc(N2CCCCC2)c(F)c1`: the “TRPML1 FLIPR pEC50” value at TRPML1 is given as “B (B = 6.0-5.0)”. In addition, the “TFEB Translocation pEC50” value in the test on TFEB was “B (B = 6.0-5.0)”.

The values above are taken from patent US12098145B2 (Libra Therapeutics, Inc., priority 2022, dated 2024).
